{
  "sequences": {"note": "Protein sequences, listed by entry. Tags and fused reporters are not part of them. Lines headed by an entry give the natural chain unless they say otherwise; changes in a name come on top.", "UniProt P53341": "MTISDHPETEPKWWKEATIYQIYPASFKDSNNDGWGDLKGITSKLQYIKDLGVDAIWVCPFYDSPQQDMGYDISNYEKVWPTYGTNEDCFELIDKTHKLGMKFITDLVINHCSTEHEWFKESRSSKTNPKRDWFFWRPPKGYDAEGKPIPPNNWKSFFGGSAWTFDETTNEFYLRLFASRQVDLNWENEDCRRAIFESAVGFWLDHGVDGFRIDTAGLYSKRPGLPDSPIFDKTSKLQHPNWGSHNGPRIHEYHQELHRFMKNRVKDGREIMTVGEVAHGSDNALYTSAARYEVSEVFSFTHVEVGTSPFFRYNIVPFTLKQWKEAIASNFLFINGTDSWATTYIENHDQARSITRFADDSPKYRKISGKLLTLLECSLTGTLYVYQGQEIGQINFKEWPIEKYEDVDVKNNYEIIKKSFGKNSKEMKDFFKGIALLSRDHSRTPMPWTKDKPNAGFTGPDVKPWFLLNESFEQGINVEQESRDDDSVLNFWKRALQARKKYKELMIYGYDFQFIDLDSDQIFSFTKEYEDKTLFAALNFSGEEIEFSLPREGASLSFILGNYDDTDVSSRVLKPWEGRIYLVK"},
  "source": "paper PMC8438977",
  "about": "“Isolation of bioactive compounds from medicinal plants used in traditional medicine: Rautandiol B, a potential lead compound against Plasmodium falciparum” (BMC Complementary Medicine and Therapies, 2021)",
  "target": "T1, α-glucosidase (AG) (Saccharomyces cerevisiae, UniProt P53341)",
  "T1 construct": "purchased Sigma",
  "type": "biochemical, S. cerevisiae",
  "description": "AGI values of extracts and pure phytochemicals were quantitatively determined in a 96-well plastic plate according to the method described by Nguyen et al.. The enzyme was incubated with the samples dissolved in DMSO for 5 min before adding the substrate. The inhibition was measured spectrophotometrically in 20 mM sodium phosphate buffer pH 6.0 at 37 °C using 3.0 mM p-nitrophenyl α-D-glucopyranoside (Sigma) as the substrate and 0.25 units/mL of AG from S. cerevisiae (Sigma). The absorbance at 405 nm was measured using a microplate reader (BioTek ELx808 microplate reader, USA).",
  "data": [
    {"smiles": "C[C@H]1O[C@H](O[C@H]2[C@H](O)[C@@H](O)[C@@H](O[C@H]3[C@H](O)[C@@H](O)C(O)O[C@@H]3CO)O[C@@H]2CO)[C@H](O)[C@@H](O)[C@@H]1N[C@H]1C=C(CO)[C@@H](O)[C@H](O)[C@H]1O", "note": "(some centres unmarked) [Acarbose, reference compound]", "values": [
      {"measurement": "% Inhibition (AGI activity), positive control", "result": "86.5 ± 0.4", "unit": "%"},
      {"measurement": "AGI activity, percentage inhibition, positive control", "result": 71.3, "unit": "%"}
    ]}
  ]
}
